# Target: alpha-1-anti-trypsin (A1AT), P01009
# Sequences of proteins named here, by UniProt entry; tags and fusion partners are left off.
# alpha-1-anti-trypsin (A1AT), P01009, UniProt P01009, whole entry, looked up: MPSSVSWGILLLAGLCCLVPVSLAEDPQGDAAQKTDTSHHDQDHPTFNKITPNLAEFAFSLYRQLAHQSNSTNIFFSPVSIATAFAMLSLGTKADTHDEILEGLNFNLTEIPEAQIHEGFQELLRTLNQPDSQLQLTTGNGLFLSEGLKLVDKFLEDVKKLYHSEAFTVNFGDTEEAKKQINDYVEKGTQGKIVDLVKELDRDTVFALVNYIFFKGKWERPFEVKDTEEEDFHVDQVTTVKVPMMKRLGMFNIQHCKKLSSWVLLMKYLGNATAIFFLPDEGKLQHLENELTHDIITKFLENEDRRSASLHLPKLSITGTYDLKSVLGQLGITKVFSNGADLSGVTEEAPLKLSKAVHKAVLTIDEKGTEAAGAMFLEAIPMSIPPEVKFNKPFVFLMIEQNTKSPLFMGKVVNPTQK
protein,measurement,value
neutrophil elastase (ELANE) (protein) IVGGRRARPHAWPFMVSLQLRGGHFCGATLIAPNFVMSAAHCVANVNVRAVRVVLGAHNLSRREPTRQVFAVQRIFENGYDPVNLLNDIVILQLNGSATINANVQVAQLPAQGRRLGNGVQCLAMGWGLLGRNRGIASVLQELNVTVVTSLCRRSNVCTLVRGRQAGVCFGDSGSPLVCNGLIHGIASFVRGGCASGLYPDAFAPVAQFVNWIDSIIQ,ELANE catalytic activity (chromogenic substrate activity assay),inactivation was confirmed with a chromogenic substrate activity assay
